Each structure is given as a SMILES string. Bounds are passed on as bounds.

Sequences of proteins named here, by UniProt entry; tags and fusion partners are left off. A change or cut given only in a name is not applied to a line headed by its entry.
UniProt Q06187: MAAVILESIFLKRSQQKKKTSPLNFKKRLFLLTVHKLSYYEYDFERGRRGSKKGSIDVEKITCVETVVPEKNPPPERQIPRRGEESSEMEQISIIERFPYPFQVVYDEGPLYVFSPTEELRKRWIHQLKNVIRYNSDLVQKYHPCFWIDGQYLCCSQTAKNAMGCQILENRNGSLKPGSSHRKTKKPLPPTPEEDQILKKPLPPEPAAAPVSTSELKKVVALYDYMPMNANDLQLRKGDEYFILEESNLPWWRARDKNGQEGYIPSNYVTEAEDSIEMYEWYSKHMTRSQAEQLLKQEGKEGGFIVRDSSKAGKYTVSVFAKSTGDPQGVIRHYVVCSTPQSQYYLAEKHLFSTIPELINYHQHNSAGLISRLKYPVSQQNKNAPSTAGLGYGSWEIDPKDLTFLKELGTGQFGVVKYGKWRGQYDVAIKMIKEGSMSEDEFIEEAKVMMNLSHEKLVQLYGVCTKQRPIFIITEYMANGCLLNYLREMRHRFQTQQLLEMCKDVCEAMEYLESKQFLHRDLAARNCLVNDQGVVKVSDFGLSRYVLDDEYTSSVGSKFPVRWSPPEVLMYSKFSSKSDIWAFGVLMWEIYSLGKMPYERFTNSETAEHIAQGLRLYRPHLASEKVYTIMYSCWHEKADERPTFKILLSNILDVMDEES

Drawing on patent publication US12570631B2, “Substituted N-(4-(pyrimidin and pyridin-4-yl)benzylcarboxamides and its use for treating disorders responsive to inhibition of Btk” (BIOGEN MA INC., priority 2019, dated 2026), this text covers IC50 for 3 molecules.

This assay has as its target BTK (Homo sapiens (Human), UniProt Q06187). Nature of the assay: In vitro BTK kinase assay: Btk-PolyGAT-LS assay. The class given is biochemical. As to conditions: ATP 10 μM, polyGAT 100 nM, BTK 0.25 nM, 30 minutes.

As to `Cc1cc(-c2ccncc2OC2CN(C#N)C2)ccc1CNC(=O)c1cn(C(C)(C)C)nn1` [Example 45, 1-(tert-butyl)-N-(4-(3-((1-cyanoazetidin-3-yl)oxy)pyridin-4-yl)-2-methylbenzyl)-1H-1,2,3-triazole-4-carboxamide], the IC50 is > 10 nM.
Turning to `Cc1cc(-c2ccncc2OC2CCN(C#N)C2)ccc1CNC(=O)c1cn(C(C)(C)C)nn1` (stereo not drawn) [Example 46, 1-(tert-butyl)-N-(4-(3-((1-cyanopyrrolidin-3-yl)oxy)pyridin-4-yl)-2-methylbenzyl)-1H-1,2,3-triazole-4-carboxamide], the IC50 is > 10 nM.
On to `Cc1cc(-c2ccncc2OC2CCN(C#N)CC2)ccc1CNC(=O)c1cn(C(C)(C)C)nn1` [Example 47, 1-(tert-butyl)-N-(4-(3-((1-cyanopiperidin-4-yl)oxy)pyridin-4-yl)-2-methylbenzyl)-1H-1,2,3-triazole-4-carboxamide], for which the IC50 is > 10 nM.
